This test addresses T1, Recombinant Human TLR4 (R&D Systems) (human, UniProt O00206, in part; Q9Y6Y9, fluorescently labeled with RED-tris-NTA 2nd Generation dye (NanoTemper Monolith His-Tag Labeling Kit)).
T1 construct: Toll-like receptor 4, human, recombinant, from R&D Systems; MD2 (MD-2, lymphocyte antigen 96), human; the methods name TLR4 alone, so it is not certain that this chain was present; no catalogue number is printed; also called Toll-like receptor 4; rTLR4/MD2; source: bought: R&D Systems
In words: MST; TLR4 labelled with RED-tris-NTA 2nd Generation (His-tag labelling kit) and kept at 5 nM; MBL titrated from 20.8 uM to 635 pM; 20 mM Tris-HCl pH 7.5, 150 mM NaCl, 5 mM CaCl2, 1 mM BME; standard capillaries, Monolith NT.115 pico, 20% LED power, high MST power; Kd model, in duplicate. As to conditions: both partners purified.

The chains behind the UniProt entries cited, without tags or fusion partners. Residues count along the entry.
UniProt O00206, 24-631, chain 1 of 2: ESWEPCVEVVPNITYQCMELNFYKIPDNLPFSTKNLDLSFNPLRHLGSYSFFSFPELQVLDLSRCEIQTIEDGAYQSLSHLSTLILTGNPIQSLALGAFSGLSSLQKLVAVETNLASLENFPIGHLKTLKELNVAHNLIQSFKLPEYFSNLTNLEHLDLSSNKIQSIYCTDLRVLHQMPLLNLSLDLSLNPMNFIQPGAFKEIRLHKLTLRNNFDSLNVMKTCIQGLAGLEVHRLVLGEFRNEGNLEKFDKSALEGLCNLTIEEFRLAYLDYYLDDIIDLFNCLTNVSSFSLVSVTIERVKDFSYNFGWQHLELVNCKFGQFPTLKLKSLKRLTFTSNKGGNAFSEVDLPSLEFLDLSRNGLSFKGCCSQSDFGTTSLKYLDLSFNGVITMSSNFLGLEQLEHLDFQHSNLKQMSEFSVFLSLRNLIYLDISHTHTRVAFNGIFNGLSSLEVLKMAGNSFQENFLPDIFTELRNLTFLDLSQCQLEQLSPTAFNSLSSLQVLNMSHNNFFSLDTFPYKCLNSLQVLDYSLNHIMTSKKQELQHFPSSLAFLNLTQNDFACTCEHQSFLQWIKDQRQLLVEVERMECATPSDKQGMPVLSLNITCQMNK
Recombinant Human TLR4 (R&D Systems), UniProt Q9Y6Y9, 19-160, chain 2 of 2: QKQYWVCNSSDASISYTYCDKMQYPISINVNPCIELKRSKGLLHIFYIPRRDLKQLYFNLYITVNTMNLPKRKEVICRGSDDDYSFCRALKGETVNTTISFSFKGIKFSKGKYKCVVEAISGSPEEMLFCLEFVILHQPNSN

B1: recombinant human MBL (mannan-binding lectin), clinical grade (natural protein, UniProt P11226 21-248, looked up)
chain: ETVTCEDAQKTCPAVIACSSPGINGFPGKDGRDGTKGEKGEPGQGLRGLQGPPGKLGPPGNPGPSGSPGPKGQKGDPGKSPDGDSSLAASERKALQTEMARIKKWLTFSLGKQVGNKFFLTNGEIMTFEKVKALCVKFQASVATPRNAAENGAIQNLIKEEAFLGITDEKTEGQFVDLTGNRLTYTNWNEGEPNNAGSDEDCVLLLKNGQWNDVPCSTSHLAVCEFPI
notes: also called rMBL; human rMBL; source: recombinant, clinical grade
For B1, the Kd was 907 ± 263 nM.

These data come from article PMC7046807, “Key Components of the Complement Lectin Pathway Are Not Only Required for the Development of Inflammatory Arthritis but Also Regulate the Transcription of Factor D” (Frontiers in Immunology, 2020).
